From ChEMBL document CHEMBL5104113, “Biophysical Survey of Small-Molecule β-Catenin Inhibitors: A Cautionary Tale” (J Med Chem, 2022)

By UniProt entry, the sequences of proteins in these tests, tags left out.
UniProt P35222, whole entry: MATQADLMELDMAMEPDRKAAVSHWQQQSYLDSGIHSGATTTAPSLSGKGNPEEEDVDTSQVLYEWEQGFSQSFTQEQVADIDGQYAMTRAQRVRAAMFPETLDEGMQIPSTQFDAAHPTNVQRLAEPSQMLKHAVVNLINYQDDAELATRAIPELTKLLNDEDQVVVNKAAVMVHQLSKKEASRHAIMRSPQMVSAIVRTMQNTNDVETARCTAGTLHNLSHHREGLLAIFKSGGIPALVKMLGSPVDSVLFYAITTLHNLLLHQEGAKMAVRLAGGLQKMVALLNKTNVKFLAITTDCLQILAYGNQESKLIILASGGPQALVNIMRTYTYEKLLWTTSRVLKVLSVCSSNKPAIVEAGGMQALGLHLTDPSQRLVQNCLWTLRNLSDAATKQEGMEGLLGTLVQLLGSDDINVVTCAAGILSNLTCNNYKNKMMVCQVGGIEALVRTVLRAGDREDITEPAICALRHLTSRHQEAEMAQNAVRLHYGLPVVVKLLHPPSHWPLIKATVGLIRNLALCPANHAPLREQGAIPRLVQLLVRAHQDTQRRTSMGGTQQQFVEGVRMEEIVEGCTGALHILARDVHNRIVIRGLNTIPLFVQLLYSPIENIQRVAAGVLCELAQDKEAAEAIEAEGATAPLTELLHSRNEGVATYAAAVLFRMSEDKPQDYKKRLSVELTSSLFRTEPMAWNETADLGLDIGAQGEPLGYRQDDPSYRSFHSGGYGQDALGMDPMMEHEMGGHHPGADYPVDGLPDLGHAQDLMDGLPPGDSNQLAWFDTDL

Molecular target: Catenin beta-1 (Homo sapiens, UniProt P35222)
Assay: Binding affinity to beta catenin (unknown origin) assessed as dissociation constant by VP-ITC method

- Kd: 420 nM
Structure (SMILES): O=C(O)CC[C@H](NC(=O)[C@H](CC(=O)O)NC(=O)[C@H](Cc1ccc2ccccc2c1)NC(=O)c1cc2cc(Cl)ccc2[nH]1)C(=O)Nc1ccc(OC(F)(F)F)cc1
